Target: human TNFR2 ECD protein (Homo sapiens, UniProt P20333)
Test: SPR off-target binding (selectivity) to human TNFR2 ECD
Details: read-out: SPR hTNFR2 KD; biotinylated human TNFR2 ECD on streptavidin chip
Description: B. Procedure for Binding Affinity and Selectivity measured by SPR
Affinity and selectivity for hTNFR1 and TNFR2 was determined using SPR. Human TNFR1 or TNFR2 genes (extracellular domain only) were synthesized with a C-terminal Avi-tag, HRV 3C protease cleavage site followed by a 6His-tag for affinity purification. The final gene product was cloned into pBAC™-1 vector (Millipore Sigma) for expression testing in insect cells. Constructs were transfected into Sf21 cells for baculovirus generation followed by protein expression analysis in Sf21 and Tni cell lines. Large scale expression in Sf21 cells was performed using baculovirus infected insect cells (BIICs) infected at a MOI=2.0 grown for 72 h. Target proteins secreted into the media were harvested via centrifugation and concentrated using diafiltration. TNFR was purified by immobilized metal ion affinity chromatography (IMAC) using a Ni-Sepharose HisTrap™ column (Cytiva™). Isolated TNFR had His tag removed using HRV 3C protease followed by additional purification using Ni-NTA chromatography. […]
The SPR assay uses a Cytiva™ 8K or 8K+ biosensor instrument to measure the kinetics of peptide analytes binding to captured human TNFR1 extracellular domain (ECD) protein; peptide analytes are also evaluated for any off-target binding to human TNFR2 ECD protein in parallel. […]

Chains of the proteins cited; added tags and fusions are not shown. Residues count along the entry.
UniProt P20333, 23-257 limits assumed: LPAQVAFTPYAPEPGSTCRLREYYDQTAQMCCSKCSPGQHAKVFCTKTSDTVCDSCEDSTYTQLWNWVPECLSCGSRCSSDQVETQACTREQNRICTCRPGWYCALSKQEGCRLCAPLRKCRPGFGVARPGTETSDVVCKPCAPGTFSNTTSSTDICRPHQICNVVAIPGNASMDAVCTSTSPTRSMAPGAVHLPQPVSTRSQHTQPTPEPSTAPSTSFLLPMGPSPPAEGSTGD

`CCCC[C@@H]1NC(=O)C2CCC(CC2)NC(=O)[C@H]([C@@H](C)c2c[nH]c3c(OC)cccc23)NC(=O)CN(C)C(=O)[C@H](Cc2ccc(O)cc2)NC(=O)[C@H](Cc2ccc(C(=O)O)cc2)NC(=O)[C@](C)(CO)NC(=O)[C@H](Cc2c[nH]c3c(Cl)cccc23)NC(=O)[C@H](Cc2ccncc2)NC(=O)[C@H](CC(N)=O)NC(=O)[C@H](CCC(=O)O)N(C)C(=O)[C@H](Cc2c[nH]c3ccccc23)NC(=O)[C@@H]2CNCCN2C(=O)[C@H](Cc2ccncc2)NC1=O` was tested. Which Kd did it give?
The Kd was greater than 1 µM.

From patent publication US20240287138A1, “CYCLIC PEPTIDES FOR INHIBITING TNF RECEPTOR 1 ACTIVITY” (Merck Sharp & Dohme LLC, priority 2023, published 2024)
